Measured values as given in ChEMBL document CHEMBL5512662, “Illuminating Dark Chemical Matter Using the Cell Painting Assay” (J Med Chem, 2024).
Each block holds one molecule with its values, some of them ahead of it. Activity calls are given as the source filed them. The rule behind the calls is not given here.

Sequences of proteins named here, by UniProt entry; tags and fusion partners are left off. A change or cut given only in a name is not applied to a line headed by its entry.
UniProt P68371: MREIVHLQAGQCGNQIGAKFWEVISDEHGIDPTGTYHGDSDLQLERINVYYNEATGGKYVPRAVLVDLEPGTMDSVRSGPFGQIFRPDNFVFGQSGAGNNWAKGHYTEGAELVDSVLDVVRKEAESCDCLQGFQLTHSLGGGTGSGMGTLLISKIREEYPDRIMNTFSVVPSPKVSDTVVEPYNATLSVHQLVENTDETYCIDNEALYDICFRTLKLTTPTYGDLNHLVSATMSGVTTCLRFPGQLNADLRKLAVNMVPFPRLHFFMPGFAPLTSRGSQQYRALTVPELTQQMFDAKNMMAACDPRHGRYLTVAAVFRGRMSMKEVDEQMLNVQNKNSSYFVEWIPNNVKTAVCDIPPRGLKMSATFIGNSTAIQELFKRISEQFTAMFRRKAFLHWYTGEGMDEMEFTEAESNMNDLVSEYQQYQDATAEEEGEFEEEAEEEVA
UniProt Q9H4B7: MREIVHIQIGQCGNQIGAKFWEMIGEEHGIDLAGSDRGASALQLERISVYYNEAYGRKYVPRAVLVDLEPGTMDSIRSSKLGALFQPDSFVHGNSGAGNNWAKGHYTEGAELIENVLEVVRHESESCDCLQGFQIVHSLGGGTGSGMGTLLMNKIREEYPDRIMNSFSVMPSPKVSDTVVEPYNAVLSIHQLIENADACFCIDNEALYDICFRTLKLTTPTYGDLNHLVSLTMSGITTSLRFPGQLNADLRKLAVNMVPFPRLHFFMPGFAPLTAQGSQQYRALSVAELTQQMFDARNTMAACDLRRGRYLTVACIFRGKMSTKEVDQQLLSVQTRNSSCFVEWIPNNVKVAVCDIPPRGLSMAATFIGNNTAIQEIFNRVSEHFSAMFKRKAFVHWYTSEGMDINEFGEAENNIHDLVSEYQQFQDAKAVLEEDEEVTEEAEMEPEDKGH
UniProt P0DPH7: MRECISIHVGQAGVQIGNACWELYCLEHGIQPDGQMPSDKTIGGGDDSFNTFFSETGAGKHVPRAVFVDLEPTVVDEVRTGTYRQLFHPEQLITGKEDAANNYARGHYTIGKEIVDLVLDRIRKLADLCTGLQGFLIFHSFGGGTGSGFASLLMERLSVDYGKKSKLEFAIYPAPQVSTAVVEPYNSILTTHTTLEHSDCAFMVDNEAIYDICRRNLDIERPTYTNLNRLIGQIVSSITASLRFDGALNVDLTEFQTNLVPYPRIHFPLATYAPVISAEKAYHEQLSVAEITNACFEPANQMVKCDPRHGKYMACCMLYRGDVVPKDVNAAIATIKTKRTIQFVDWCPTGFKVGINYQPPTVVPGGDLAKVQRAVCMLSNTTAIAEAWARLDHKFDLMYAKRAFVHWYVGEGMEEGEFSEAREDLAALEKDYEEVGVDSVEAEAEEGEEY
UniProt P68366: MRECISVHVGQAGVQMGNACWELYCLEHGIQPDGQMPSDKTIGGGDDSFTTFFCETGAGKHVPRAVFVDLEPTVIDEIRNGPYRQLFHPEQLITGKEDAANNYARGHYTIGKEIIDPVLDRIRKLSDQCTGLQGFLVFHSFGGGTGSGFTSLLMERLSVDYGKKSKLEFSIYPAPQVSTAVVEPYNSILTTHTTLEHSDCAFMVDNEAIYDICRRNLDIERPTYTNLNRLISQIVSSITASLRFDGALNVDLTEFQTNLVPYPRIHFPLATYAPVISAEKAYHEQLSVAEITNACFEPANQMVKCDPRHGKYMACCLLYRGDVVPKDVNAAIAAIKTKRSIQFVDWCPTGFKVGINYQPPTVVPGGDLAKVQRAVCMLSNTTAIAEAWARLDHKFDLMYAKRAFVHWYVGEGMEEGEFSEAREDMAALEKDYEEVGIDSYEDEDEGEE
UniProt Q13509: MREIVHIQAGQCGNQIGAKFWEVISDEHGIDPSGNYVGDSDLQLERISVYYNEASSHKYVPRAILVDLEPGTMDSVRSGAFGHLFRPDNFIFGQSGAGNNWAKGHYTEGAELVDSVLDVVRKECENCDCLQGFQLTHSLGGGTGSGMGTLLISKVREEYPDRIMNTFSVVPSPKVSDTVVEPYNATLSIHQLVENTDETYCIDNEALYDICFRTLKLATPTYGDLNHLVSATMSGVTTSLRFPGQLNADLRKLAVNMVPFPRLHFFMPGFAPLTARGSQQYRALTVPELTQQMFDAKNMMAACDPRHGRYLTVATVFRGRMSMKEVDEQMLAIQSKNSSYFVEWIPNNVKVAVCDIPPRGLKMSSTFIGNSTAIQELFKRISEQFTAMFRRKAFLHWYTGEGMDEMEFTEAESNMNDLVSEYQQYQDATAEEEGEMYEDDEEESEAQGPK
UniProt Q71U36: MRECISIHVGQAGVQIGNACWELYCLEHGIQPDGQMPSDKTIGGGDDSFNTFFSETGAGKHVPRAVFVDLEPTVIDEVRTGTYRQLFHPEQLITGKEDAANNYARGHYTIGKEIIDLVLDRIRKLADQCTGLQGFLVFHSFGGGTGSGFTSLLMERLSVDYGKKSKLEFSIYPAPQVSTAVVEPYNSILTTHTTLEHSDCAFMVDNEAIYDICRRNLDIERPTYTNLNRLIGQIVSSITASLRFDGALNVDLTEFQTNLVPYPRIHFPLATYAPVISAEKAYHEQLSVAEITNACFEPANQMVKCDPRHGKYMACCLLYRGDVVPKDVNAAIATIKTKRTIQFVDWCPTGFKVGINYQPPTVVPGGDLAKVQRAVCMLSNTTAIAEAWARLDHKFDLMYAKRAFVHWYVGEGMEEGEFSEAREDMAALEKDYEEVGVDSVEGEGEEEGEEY
UniProt P04350: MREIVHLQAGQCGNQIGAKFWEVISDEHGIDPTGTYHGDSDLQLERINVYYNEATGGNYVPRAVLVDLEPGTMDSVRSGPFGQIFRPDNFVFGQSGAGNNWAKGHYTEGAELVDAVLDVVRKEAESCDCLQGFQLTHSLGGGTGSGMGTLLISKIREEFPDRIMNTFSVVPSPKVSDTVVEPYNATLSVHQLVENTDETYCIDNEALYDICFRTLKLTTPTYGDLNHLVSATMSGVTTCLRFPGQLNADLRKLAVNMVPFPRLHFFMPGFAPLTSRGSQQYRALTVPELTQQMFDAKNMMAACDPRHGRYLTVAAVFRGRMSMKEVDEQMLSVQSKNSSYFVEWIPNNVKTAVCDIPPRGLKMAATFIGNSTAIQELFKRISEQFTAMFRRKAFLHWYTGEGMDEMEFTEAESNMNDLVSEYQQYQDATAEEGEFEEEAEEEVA
UniProt Q3ZCM7: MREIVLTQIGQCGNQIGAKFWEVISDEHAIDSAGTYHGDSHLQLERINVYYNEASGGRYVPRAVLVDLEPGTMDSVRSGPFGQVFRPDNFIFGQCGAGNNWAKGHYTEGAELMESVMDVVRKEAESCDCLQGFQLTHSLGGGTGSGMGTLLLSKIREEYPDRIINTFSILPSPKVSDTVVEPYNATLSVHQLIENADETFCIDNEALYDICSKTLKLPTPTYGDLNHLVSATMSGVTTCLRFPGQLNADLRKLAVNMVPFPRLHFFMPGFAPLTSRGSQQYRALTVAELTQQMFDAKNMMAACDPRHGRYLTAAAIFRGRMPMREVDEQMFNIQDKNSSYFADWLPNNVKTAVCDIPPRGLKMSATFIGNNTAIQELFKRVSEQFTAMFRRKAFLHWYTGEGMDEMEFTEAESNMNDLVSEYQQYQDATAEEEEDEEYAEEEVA
UniProt P68363: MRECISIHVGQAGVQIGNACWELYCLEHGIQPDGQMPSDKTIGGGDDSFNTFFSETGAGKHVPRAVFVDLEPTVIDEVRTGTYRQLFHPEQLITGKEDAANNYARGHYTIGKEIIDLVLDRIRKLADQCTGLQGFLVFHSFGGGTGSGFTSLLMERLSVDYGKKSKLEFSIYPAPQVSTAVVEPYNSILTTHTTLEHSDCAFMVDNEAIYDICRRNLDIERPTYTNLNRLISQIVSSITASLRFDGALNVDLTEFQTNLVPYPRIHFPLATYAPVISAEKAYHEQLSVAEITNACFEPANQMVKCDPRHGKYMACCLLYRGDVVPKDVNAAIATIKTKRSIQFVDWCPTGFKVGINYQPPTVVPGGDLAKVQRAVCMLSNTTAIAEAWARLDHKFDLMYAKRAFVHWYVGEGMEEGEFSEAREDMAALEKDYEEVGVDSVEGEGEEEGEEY
UniProt Q9BQE3: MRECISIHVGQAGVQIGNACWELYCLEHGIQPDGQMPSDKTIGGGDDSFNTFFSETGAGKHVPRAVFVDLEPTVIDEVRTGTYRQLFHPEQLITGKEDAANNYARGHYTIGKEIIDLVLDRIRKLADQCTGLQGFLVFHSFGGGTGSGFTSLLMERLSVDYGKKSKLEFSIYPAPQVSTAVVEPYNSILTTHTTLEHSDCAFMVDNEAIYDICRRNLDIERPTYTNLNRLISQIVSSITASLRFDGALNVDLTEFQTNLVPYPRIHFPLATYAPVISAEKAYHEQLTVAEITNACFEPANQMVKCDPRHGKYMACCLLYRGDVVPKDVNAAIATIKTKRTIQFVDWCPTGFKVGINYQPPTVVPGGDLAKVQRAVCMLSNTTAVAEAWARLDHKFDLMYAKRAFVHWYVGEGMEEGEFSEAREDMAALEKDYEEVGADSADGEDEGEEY
UniProt Q6PEY2: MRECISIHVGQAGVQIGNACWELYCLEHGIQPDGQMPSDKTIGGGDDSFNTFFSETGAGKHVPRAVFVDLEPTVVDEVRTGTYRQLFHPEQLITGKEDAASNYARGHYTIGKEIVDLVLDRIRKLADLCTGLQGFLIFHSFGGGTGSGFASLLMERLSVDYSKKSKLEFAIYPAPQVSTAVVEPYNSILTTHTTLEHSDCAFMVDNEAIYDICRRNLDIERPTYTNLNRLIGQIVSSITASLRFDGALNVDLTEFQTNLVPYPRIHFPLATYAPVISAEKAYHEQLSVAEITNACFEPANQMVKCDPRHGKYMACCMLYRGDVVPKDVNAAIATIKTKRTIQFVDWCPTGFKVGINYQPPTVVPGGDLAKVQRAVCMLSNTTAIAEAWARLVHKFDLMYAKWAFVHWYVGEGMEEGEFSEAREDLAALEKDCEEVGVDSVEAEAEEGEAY
UniProt Q13885: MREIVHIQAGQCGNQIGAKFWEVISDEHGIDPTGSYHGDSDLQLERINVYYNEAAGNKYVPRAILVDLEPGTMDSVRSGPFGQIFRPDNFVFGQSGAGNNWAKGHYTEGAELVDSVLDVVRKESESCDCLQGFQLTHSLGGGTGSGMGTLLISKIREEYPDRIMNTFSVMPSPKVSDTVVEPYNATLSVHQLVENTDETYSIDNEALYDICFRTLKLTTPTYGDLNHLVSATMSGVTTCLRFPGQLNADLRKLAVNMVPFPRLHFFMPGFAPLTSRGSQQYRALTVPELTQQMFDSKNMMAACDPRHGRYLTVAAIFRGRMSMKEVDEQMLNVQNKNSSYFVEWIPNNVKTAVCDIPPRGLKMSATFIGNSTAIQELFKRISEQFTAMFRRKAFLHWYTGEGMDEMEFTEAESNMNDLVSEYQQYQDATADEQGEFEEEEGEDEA
UniProt Q9BVA1: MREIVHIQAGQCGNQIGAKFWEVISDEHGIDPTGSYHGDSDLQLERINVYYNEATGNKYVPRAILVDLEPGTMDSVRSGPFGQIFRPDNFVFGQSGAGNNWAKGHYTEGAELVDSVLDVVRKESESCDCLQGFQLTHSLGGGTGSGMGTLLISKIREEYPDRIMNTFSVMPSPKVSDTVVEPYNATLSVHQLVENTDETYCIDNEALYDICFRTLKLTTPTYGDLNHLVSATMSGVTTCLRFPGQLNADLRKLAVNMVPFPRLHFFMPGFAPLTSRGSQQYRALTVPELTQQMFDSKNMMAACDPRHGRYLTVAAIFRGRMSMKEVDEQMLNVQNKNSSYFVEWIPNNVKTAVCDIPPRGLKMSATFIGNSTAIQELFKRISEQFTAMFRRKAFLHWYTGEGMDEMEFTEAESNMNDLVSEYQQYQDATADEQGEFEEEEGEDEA
UniProt Q9BUF5: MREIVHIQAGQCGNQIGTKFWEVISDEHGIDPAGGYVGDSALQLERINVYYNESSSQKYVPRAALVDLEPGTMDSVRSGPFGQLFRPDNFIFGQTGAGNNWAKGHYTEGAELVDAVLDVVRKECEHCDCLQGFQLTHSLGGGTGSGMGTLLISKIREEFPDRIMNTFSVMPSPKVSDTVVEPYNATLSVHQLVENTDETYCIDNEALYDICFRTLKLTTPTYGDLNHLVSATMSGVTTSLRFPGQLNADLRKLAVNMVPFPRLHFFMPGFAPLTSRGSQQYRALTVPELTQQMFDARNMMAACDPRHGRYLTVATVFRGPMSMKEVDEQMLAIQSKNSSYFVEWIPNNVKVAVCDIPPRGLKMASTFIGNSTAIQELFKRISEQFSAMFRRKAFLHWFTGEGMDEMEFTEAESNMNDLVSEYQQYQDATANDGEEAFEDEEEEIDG

Tests used:
Sus scrofa = organism: Sus scrofa; assay: Inhibition of porcine alpha/beta tubulin polymerization at 20 uM preincubated for 20 mins at room temperature prior to incubation in ice for 20 mins followed by GTP addition and measured after 60 mins; conditions: time 100.0 min
Tubulin (Homo sapiens) = Tubulin (Homo sapiens) (UniProt P68371+Q9H4B7+P0DPH7+P68366+Q13509+Q71U36+P04350+Q3ZCM7+P07437+P68363+Q9BQE3+Q6PEY2+Q13885+Q9BVA1+Q9BUF5); assay: Induction of microtubule depolymerization in human U2OS cells at 10 to 30 uM incubated for 24 hrs; assay type: cell-based; conditions: dose 10-30 µM
U2OS [1] = assay: Induction of mitotic cell numbers in human U2OS cells at 10 uM incubated for 24 hrs by immunocytochemistry analysis; assay type: functional, cell-based
U2OS [2] = assay: Induction of cell cycle arrest in human U2OS cells assessed as accumulation of 4N-DNA content at 30 uM incubated for 22 hrs followed by EdU plus addition for 2 hrs; assay type: functional, cell-based; conditions: time 24.0 hrs
[3] = target: Protein smoothened (Mus musculus) (UniProt P56726); assay: Antagonist activity at mouse SMO expressed in HEK293T cells assessed as inhibition of BODIPY-cyclopamine binding incubated for 4 hrs by fluorescence microscopy method; assay type: functional, cell-based
Shh Light II = assay: Inhibition of purmorphamine-induced osteoblast differentiation in mouse Shh Light II cells assessed as reduction in GLI-mediated gene expression preincubated for 1 hr followed by purmorphamine addition for 48 hrs by luminescence based reporter gene assay; assay type: functional, cell-based; conditions: time 49.0 hrs
U2OS [4] = assay: Induction of cell cycle arrest in human U2OS cells assessed as S-phase arrest by measuring 2N-4N DNA content at 30 uM incubated for 22 hrs followed by EdU plus addition for 2 hrs; assay type: functional, cell-based; conditions: time 24.0 hrs

SMILES: Nc1ncnc2c1ncn2[C@@H]1O[C@H](CO)[C@@H](O)[C@@H]1O
Activity (U2OS [2]): Active

SMILES: CCOc1ccc(Oc2nc(Nc3ccc(C)cc3)nc(N(C)C)n2)nn1
Activity [3]: inactive

SMILES: COc1cc(Nc2nc3ccc(Cl)cc3n3cnnc23)cc(OC)c1OC
inhibition (Shh Light II): Dose-Dependent Effect

SMILES: Cc1ccc(N2CC(C(=O)N3CCC(C(=O)Nc4cccc(Br)c4)CC3)CC2=O)cc1 (centres undefined)
inhibition (Shh Light II): Dose-Dependent Effect

SMILES: COc1ccc(-c2cc(C(F)F)n3ncc(C(=O)N4CCN(c5cccc(Cl)c5)CC4)c3n2)cc1
inhibition (Shh Light II): Dose-Dependent Effect

SMILES: COc1ccc(O)c(/C=N/NC(=O)CCC(=O)Nc2cccc(C)c2)c1
Activity (U2OS [4]): Active

SMILES: COCCNC(=O)C1CCN(C(=O)c2cc3sccc3n2Cc2ccc(F)cc2)CC1
inhibition (Shh Light II): Dose-Dependent Effect
Activity ([3]; filed as antagonist): Active

SMILES: COc1ccccc1NC(=O)CCc1c(C)nc2c(-c3ccc(F)cc3)c(C)nn2c1C
inhibition (Shh Light II): Dose-Dependent Effect

Continued, in another order:

inhibition (Sus scrofa): inactive
Activity (Tubulin (Homo sapiens)): 100%
SMILES: COc1cc(/C=C2/SC(=S)N(Cc3ccccc3)C2=O)ccc1OS(C)(=O)=O
Activity (U2OS [1]): Active

inhibition (Sus scrofa): Active
SMILES: COc1ccc(CNC(=O)c2cc3cc(OC)ccc3oc2=O)cc1

Activity ([3]; filed as antagonist): Active
SMILES: CN(CCCNC(=O)c1nn(C)c2c1CS(=O)(=O)c1ccccc1-2)Cc1ccccc1
inhibition (Shh Light II): Dose-Dependent Effect

inhibition (Sus scrofa): Active
SMILES: COc1ccc(C)cc1S(=O)(=O)n1cnc2ccccc21

inhibition (Sus scrofa): Active
SMILES: CCc1cc(C(=O)N/N=C/c2ccc(OC)cc2)c2ccccc2n1

Activity ([3]; filed as antagonist): Active
SMILES: COc1ccccc1CCNC(=O)CCCn1nc(C)c2c(C)n(-c3ccc(C)cc3)nc2c1=O
inhibition (Shh Light II): Dose-Dependent Effect
